According to US11883505B2, “Anticancer drug-containing plant virus particles” (CASE WESTERN RESERVE UNIVERSITY, priority 2015, dated 2024):

Assay: Liver and kidney toxicity in Balb/c mice (AST, ALT, histology)
Settings: 24 h following administration

phenanthriplatin
kidney histology (H&E): necrosis of epithelia on the proximal tubules as well as narrowing of the lumen
